Data on one compound can be found in article PMC7978378, “Discovery of novel dual adenosine A1/A2A receptor antagonists using deep learning, pharmacophore modeling and molecular docking” (PLoS Computational Biology, 2021).

This test concerns A1/A2A ARs. Kind of test: cAMP functional assay, summarised over both receptors. The conditions noted are these: range over A1AR and A2AAR cAMP assays. In general terms: Changes in cAMP serve as a functional read-out for many G protein-coupled receptors.

For the compound `COc1cccc(C(=O)n2nc(-c3ccccc3Cl)nc2N)c1` [Compound C8], the “pIC50 towards A1/A2A ARs” value is reported as 6.31–6.78.
